Assay: Insulin oral delivery, rat studies: serum human insulin by ELISA
Settings: no delivery agent, previous experiments
Method: The solution was vortexed, then heated (about 37° C.) and sonicated. The pH was adjusted to about 7 to 8.5 with NaOH or HCl. […] (For example, for compound 1a, a total of 258.5 ml 10N NaOH was added to 501 mg compound in 1.5 ml water, final pH 7.73.) Water was then added to bring the total volume to about 2.4 ml and vortexed. About 1.25 mg insulin from an insulin stock solution (15 mg/ml made from 0.5409 g insulin and 18 ml deionized water, adjusting with HCl and NaOH to pH 8.15 and to obtain a clear solution using 40 ml concentrated HCl, 25 ml 10N NaOH and 50 ml 1N NaOH) was added to the solution and mixed by inverting. The final delivery agent compound dose, insulin dose and dose volume amounts are listed below in Table 1.
The dosing and sampling protocols were as follows. […] Solution was administered by pressing the syringe plunger.
Serum insulin levels were determined with an Insulin ELISA Test Kit (Kit # DSL-10-1600 from Diagnostic Systems Laboratories, Inc., Webster, Tex.), modifying the standard protocol in order to optimize the sensitivity and linear range of the standard curve for the volumes and concentrations of the samples used in the present protocol. […] The five values for each time point were averaged and the results plotted as serum insulin concentration versus time.

## human insulin
  levels of human insulin following oral dosing with human insulin alone: no measurable levels
